Laboratory results from patent US20250367268A1, “Compositions and Methods for Treating Internal Bleeding and Hemorrhage” (priority 2024, published 2025).

Tested on: Trauma and 27 ml/kg hemorrhagic shock
Assay: Second albumin study: trauma and 27 ml/kg hemorrhagic shock model, albumin bolus then crystalloid as needed
Assay type: in vivo
Conditions: FIG. 2 and FIG. 3
Experimental: Two studies of resuscitation by albumin after hemorrhage were performed. In the first study, resuscitation by a crystalloid (control) was compared to resuscitation with either a bolus of bovine serum albumin (BSA) saturated with oleic acid (OA-BSA) or a bolus of NEFA-free albumin, followed by crystalloid, as needed. As commercially available pharmaceutical grade albumin is human albumin (HSA) that is nearly saturated with caprylic acid, instead of oleic acid, in the second study OA-BSA, caprylic acid-saturated BSA (CA-BSA), and pharmaceutical grade human serum albumin (HSA) were compared. A crystalloid-only group (“Crystalloid Only Group”) was also run as a control. Note that HSA is usually 1.2% caprylic acid by weight of albumin plus an additional approximate 0.14% by weight of albumin of assorted NEFAs originating from the donor, for a total of approximately 1.34% NEFA by weight of albumin. […]
The facility's Institutional Animal Care and Use Committee (IACUC) approved all research conducted in this study. […] Core temperature was maintained (36-37° C.) using a heating pad and monitored with a rectal probe (Physitemp, Clifton, NJ). […]

HSA: pharmaceutical grade human serum albumin, 25% HSA from Grifols, nearly saturated with caprylic acid
loss of protein from the circulation (plasma/total protein T2 to T4): significant drop
